Source: PMC5226997 (European Journal of Clinical Pharmacology, 2016)

Assay: Study A: plasma pharmacokinetics of single-dose selumetinib 25 mg alone or co-dosed with itraconazole or fluconazole
[1] = co-dosed with itraconazole vs selumetinib alone

With `Cn1cnc2c(F)c(Nc3ccc(Br)cc3Cl)c(C(=O)NOCCO)cc21` [Selumetinib] the “effect on median t max” value (co-dosed with fluconazole vs selumetinib alone) was “did not impact”, the “apparent systemic clearance (CL/F) decreased by” value [1] was “approximately one third” and the “effect on median t max” value [1] was “did not influence”.
